Data from patent US4587254A, “1,3,4-thiadiazole derivatives, process for the production thereof and use thereof as antiulcer agent” (Wakamoto Pharmaceutical Co., Ltd., priority 1983, dated 1986).

The chains behind the UniProt entries cited, without tags or fusion partners.
UniProt P47747, whole entry: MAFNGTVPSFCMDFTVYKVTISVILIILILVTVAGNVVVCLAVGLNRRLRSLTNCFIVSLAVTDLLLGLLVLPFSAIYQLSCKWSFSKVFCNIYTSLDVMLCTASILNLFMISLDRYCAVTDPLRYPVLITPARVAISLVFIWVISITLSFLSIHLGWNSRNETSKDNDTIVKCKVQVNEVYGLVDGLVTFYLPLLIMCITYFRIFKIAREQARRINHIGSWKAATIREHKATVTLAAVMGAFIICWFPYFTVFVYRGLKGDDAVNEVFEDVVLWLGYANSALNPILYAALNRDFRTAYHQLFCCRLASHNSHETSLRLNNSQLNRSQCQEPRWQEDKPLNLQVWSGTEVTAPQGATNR

Target: T1, histamine H2 receptors (Cavia porcellus, UniProt P47747)
T1 construct: histamine-induced heart rate increase (chronotropic), pA2
Assay: Antagonism to histamine H2 receptors (isolated guinea pig atria, histamine-induced heart rate increase)
Parameters: species or system guinea pigs (male Hartley)
Conditions: guinea pig atrium, 37° C.

CN/C(=N/CCSCc1nc[nH]c1C)NC#N [cimetidine, reference compound]
PA2 value: 6.00
